The list shows a part of the results, in another mix than the full data. Results filed as inconclusive are left out. Calls of active or inactive are those of the source. Calls follow the shape of the dose curve; as a rule, active = well fitted inhibition curve with a large enough effect; inconclusive = small, poorly fitted or top-dose-only effect; inactive = no such curve, though single readings can be large or run the other way.
% is scaled to controls: 0 for no effect and ±100 for the full control effect.

Sequences of proteins named here, by UniProt entry; tags and fusion partners are left off.
UniProt Q9Y468, whole entry: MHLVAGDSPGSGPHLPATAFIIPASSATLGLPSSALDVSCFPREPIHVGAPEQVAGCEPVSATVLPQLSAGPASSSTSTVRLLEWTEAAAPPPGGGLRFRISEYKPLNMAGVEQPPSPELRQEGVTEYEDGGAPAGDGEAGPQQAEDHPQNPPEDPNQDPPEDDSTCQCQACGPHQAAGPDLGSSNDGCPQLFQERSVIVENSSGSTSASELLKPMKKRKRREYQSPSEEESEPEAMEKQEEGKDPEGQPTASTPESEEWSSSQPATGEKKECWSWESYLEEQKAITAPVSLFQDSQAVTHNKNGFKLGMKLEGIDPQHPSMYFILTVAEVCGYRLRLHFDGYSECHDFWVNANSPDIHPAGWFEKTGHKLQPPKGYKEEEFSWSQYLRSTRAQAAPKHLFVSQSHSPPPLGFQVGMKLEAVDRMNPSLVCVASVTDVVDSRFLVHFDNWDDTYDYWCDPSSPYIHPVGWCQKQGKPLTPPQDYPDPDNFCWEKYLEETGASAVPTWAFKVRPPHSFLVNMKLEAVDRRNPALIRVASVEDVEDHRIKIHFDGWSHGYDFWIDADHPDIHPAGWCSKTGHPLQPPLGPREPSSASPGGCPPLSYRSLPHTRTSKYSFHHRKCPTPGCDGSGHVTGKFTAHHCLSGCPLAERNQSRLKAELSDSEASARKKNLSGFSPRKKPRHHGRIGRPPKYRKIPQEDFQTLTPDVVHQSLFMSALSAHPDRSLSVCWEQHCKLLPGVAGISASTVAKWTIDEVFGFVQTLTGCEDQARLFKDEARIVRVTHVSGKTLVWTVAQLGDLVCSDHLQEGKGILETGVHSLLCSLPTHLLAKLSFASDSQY

The target in the assay is Lethal(3)malignant brain tumor-like protein 1 (Homo sapiens) (UniProt Q9Y468). Kind of assay: qHTS Assay for the Inhibitors of L3MBTL1. Also: nearly all actives have a fitted effect of over 60% in size. The following applies: AlphaScreen L3MBTL1–H3K9me1 peptide binding; at 57.1 µM (top of the series) unless noted. A general note: Quantitative high-throughput screening tests each substance at several concentrations.
In the case of `COc1cc(OC)cc(C(=O)NCC2(N3CCOCC3)CCCCC2)c1`, the activity, negative = inhibition was inactive: 3.72%.
With `CCC(CO)(C(=O)OC1CN2CCC1CC2)c1ccccc1` (centres undefined), the activity, negative = inhibition was inactive: 9.67%.
For the compound `CCCOc1ccc(C)cc1CN(CCCl)CCCl`, the activity, negative = inhibition is inactive: 5.98%.
Turning to `CN1CCC(Nc2ccc(F)c(Cl)c2)CC1`, the activity, negative = inhibition was inactive: -5.1%.
Take `CC(C)(C)OC(=O)N1CCC(Nc2ccccc2)CC1`: the activity, negative = inhibition was inactive: 8.45%.
Consider `CCN1CCC(Nc2cccc(F)c2)CC1`, for which the activity, negative = inhibition is inactive: -4.65%.
To `CN(C)c1ccc(C(=O)NCC2(N3CCCCC3)CCCCC2)cc1` belongs inactive: 4.95%; to `O=C(NCC1(N2CCCCC2)CCCCC1)c1ccco1`, inactive: 1.16%; to `Fc1ccccc1NC1CCN(Cc2ccccc2)CC1`, inactive: -0.114%.
For `Cc1ccc(C(=O)NCC2(N3CCCCC3)CCCCC2)o1`, the activity, negative = inhibition was inactive: -1.82%.
`CCCN1CCC(Nc2cc(OC)cc(OC)c2)CC1`: the activity, negative = inhibition was inactive: -4.81%.
To `N#Cc1ccc(C(=O)NCC2(N3CCCCC3)CCCCC2)cc1` belongs inactive: -5.39%; to `CCOC(=O)C(CC)C1=NC(C)(C)Cc2ccccc21.O=[N+]([O-])c1cc([N+](=O)[O-])c(O)c([N+](=O)[O-])c1` (centres undefined), inactive: 0.655%; to `CCOC(=O)N1CCC(Nc2ccc(C)cc2)CC1`, inactive: 4.93%.
In the case of `N/C(=N\O)c1c(N)no[n+]1[O-]`, the activity, negative = inhibition was inactive: 7.98%.
On to `CCc1cc(C(=O)NCC2(N3CCCCC3)CCCCC2)sc1C`, for which the activity, negative = inhibition is inactive: -1.04%.
On to `O=C(OC1CN2CCC1CC2)C1c2ccccc2C=Cc2ccccc21` (centres undefined), for which the activity, negative = inhibition is inactive: -3.01%.
As for `COc1cc(C(=O)NCC2(N3CCOCC3)CCCCC2)cc(OC)c1C`, the activity, negative = inhibition was inactive: -4.84%.
As for `O=C(NCC1(N2CCOCC2)CCCCC1)c1cc(Br)ccc1Cl`, the activity, negative = inhibition was inactive: 5.97%.
As for `O=C(OC1CN2CCC1CC2)c1ccc([N+](=O)[O-])cc1` (centres undefined), the activity, negative = inhibition is inactive: -5.49%.
`O=C(NCC1(N2CCCCC2)CCCCC1)c1cncc(Br)c1`: the activity, negative = inhibition was inactive: 4.02%.
`O=[N+]([O-])c1cc([N+](=O)[O-])c(OC2CCCCC2O)c([N+](=O)[O-])c1` (centres undefined): the activity, negative = inhibition is inactive: -1.81%.
With `COc1ccc(CN(CCCl)CCCl)cc1Cl`, the activity, negative = inhibition is inactive: -12%.
To `O=C(NCC1(N2CCOCC2)CCCCC1)c1cc(F)c(F)cc1Cl` belongs inactive: 5.28%; to `O=[N+]([O-])c1cc([N+](=O)[O-])c(NCC2CCS(=O)(=O)C2)c([N+](=O)[O-])c1` (centres undefined), inactive: -10.7%; to `COc1ccc(NC2CCN(C(=O)OC(C)(C)C)CC2)cc1`, inactive: -12.3%.
For `CC(C)c1ccc(C(=O)NCC2(N3CCOCC3)CCCCC2)cc1`, the activity, negative = inhibition was inactive: -16.6%.
With `CN1CCN(CCOC(=O)C(O)(c2ccccc2)c2ccccc2)CC1`, the activity, negative = inhibition is inactive: 11.5%.
On to `N#CC1(Nc2ccccc2)CCN(CCc2ccccc2)CC1`, for which the activity, negative = inhibition was inactive: -6.17%.
Turning to `O=C(NCC1(N2CCCCC2)CCCCC1)c1cccc([N+](=O)[O-])c1`, the activity, negative = inhibition is inactive: 21.6%.
To `CSc1ccc(C(=O)NCC2(N3CCOCC3)CCCCC2)cc1` belongs inactive: -3.65%; to `Cc1ccc(OCC(C)C)c(CN(CCCl)CCCl)c1`, inactive: -1.71%; to `CCOc1ccc(C)cc1CN(CCCl)CCCl`, inactive: 7.45%.
To `CCOC(=O)N1CCC(Nc2ccc(F)cc2)CC1` belongs inactive: -2.52%; to `COc1ccc(NC2CCN(CCc3ccccc3)CC2)c(OC)c1`, inactive: -11.8%; to `CCCCOc1ccc(C(=O)NCC2(N3CCOCC3)CCCCC2)cc1`, inactive: 3.48%.
As for `O=C(NCC1(N2CCCCC2)CCCCC1)c1ccc(Cl)nc1`, the activity, negative = inhibition was inactive: -6.02%.
The figure for `COc1ccc(Cl)cc1C(=O)NCC1(N2CCOCC2)CCCCC1` is inactive: 3.34%.
Consider `O=C(NCC1(N2CCCCC2)CCCCC1)c1ccc(Cl)s1`, for which the activity, negative = inhibition is inactive: 7.33%.
`N#CC1(Nc2ccccc2)CCN(Cc2ccccc2)CC1`: the activity, negative = inhibition is inactive: 7.12%.
Take `O=C(OC1CN2CCC1CC2)C1c2ccccc2Oc2ccccc21` (centres undefined): the activity, negative = inhibition was inactive: -2.77%.
`CCOC(=O)N1CCC(Nc2ccc(OC)cc2)CC1`: the activity, negative = inhibition is inactive: -4.54%.
As to `COc1ccc(C(=O)NCC2(N3CCCCC3)CCCCC2)c(OC)c1OC`, the activity, negative = inhibition is inactive: 28.9% [at 11.4 µM].
Regarding `O=C(NCC1(N2CCCCC2)CCCCC1)c1cccs1`, the activity, negative = inhibition was inactive: 4.72%.

(Values after PubChem BioAssay AID485360 (National Center for Advancing Translational Sciences (NCATS), 2010).)
